# Cyclic peptide permeability, from CycPeptMPDB

Source: CycPeptMPDB (Li et al. 2023), which took these values from Townsend et al. 2020, doi:10.26434/chemrxiv.13335941.v1.

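Conditions beyond the assay type are not listed; see the original paper. Other peptides of the study may be missing here. Entries at the database's floor value (log10 P of -10) are not listed.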

PAMPA is the parallel artificial membrane permeability assay, which has no cells and reads passive diffusion. P is given in units of 10^-6 cm/s (from log10 values with two decimals); larger means faster passage.

| structure (SMILES) | PAMPA (10^-6 cm/s) |
|---|---|
| CCCN1CC(=O)N[C@H](CC(C)C)C(=O)N(C)[C@@H](CC(C)C)C(=O)N2CCC[C@@H]2C(=O)N(C)[C@H](CC(C)C)C(=O)N[C@@H](Cc2ccccc2)C(=O)N2CCC[C@H]2C1=O | 4.4 |
| CC(C)C[C@@H]1NC(=O)[C@H](C)N(C)C(=O)[C@H]2CCCN2C(=O)[C@H](Cc2ccccc2)NC(=O)[C@H](CC(C)C)N(C)C(=O)[C@H]2CCCN2C(=O)[C@@H](CC(C)C)NC1=O | 4.5 |
| CC(C)C[C@@H]1NC(=O)[C@@H](CC(C)C)NC(=O)[C@@H](C)N(C)C(=O)[C@H](Cc2ccccc2)NC(=O)[C@H](CC(C)C)N(C)C(=O)[C@@H]2CCCN2C1=O | 5.2 |
| CCCN1CC(=O)N[C@H](CC(C)C)C(=O)N[C@@H](CC(C)C)C(=O)N2CCC[C@@H]2C(=O)N(Cc2ccccc2)CC(=O)N[C@@H](Cc2ccccc2)C(=O)N2CCC[C@@H]2C1=O | 1.8 |
| CCCN1CC(=O)N[C@H](CC(C)C)C(=O)N(Cc2ccccc2)CC(=O)N2CCC[C@@H]2C(=O)N(C)[C@H](CC(C)C)C(=O)N[C@@H](Cc2ccccc2)C1=O | 4.5 |
| CC(C)C[C@H]1NC(=O)[C@@H]2CCCN2C(=O)CN(Cc2ccccc2)C(=O)[C@H](CC(C)C)N(C)C(=O)C[C@H](Cc2ccccc2)NC(=O)[C@@H]2CCCN2C(=O)[C@H](Cc2ccccc2)NC1=O | 1.4 |
| CC(C)C[C@H]1NC(=O)C[C@H](Cc2ccccc2)NC(=O)[C@H](Cc2ccccc2)NC(=O)[C@H](CC(C)C)N(C)C(=O)[C@@H]2CCCN2C(=O)[C@H](CC(C)C)N(C)C1=O | 9.5 |
| CC(C)C[C@@H]1NC(=O)[C@@H]2CCCN2C(=O)[C@@H](CC(C)C)N(C)C(=O)[C@H](CC(C)C)N(C)C(=O)[C@@H](C)N(C)C(=O)[C@H](Cc2ccccc2)NC1=O | 15 |
| CC(C)C[C@@H]1NC(=O)C[C@H](Cc2ccccc2)NC(=O)[C@@H]2CCCN2C(=O)[C@H](Cc2ccccc2)NC(=O)[C@H](CC(C)C)N(C)C(=O)[C@H]2CCCN2C(=O)[C@H](CC(C)C)N(C)C1=O | 4.7 |
| CC(C)C[C@H]1NC(=O)[C@H](C)NC(=O)[C@H](Cc2ccccc2)NC(=O)[C@H](CC(C)C)N(C)C(=O)[C@H]2CCCN2C(=O)CN(Cc2ccccc2)C1=O | 1.7 |
| CC(C)C[C@H]1NC(=O)[C@H](CC(C)C)N(C)C(=O)[C@H](C)N(C)C(=O)[C@H]2CCCN2C(=O)[C@H](Cc2ccccc2)NC(=O)[C@H](CC(C)C)N(C)C(=O)[C@H]2CCCN2C1=O | 5 |
| CC(C)C[C@H]1NC(=O)[C@@H]2CCCN2C(=O)CN(Cc2ccccc2)C(=O)[C@@H](CC(C)C)NC(=O)[C@H](C)NC(=O)[C@H](Cc2ccccc2)NC1=O | 0.79 |

Excerpt, the opening 2 entries:

| structure (SMILES) | PAMPA (10^-6 cm/s) |
|---|---|
| CCCN1CC(=O)N[C@H](CC(C)C)C(=O)N(C)[C@@H](CC(C)C)C(=O)N2CCC[C@@H]2C(=O)N(C)[C@H](CC(C)C)C(=O)N[C@@H](Cc2ccccc2)C(=O)N2CCC[C@H]2C1=O | 4.4 |
| CC(C)C[C@@H]1NC(=O)[C@H](C)N(C)C(=O)[C@H]2CCCN2C(=O)[C@H](Cc2ccccc2)NC(=O)[C@H](CC(C)C)N(C)C(=O)[C@H]2CCCN2C(=O)[C@@H](CC(C)C)NC1=O | 4.5 |